Key:
Estrogen Receptor (ER) = Estrogen Receptor (ER) (Homo sapiens, UniProt P03372); assay: residence time imaging of ER-Halo (track length survival); format: cell-based; conditions: track length distribution, FIG. 16G, 18E, 21E
[1] = molecular target: T1, progesterone receptor (PR) (Homo sapiens, UniProt P06401); assay: htSMT of Halo-PR in U2OS cells; format: cell-based; conditions: 1 μM antagonist, absence or presence of cognate agonist, FIG. 36B
T1 sequence (P06401 1-933): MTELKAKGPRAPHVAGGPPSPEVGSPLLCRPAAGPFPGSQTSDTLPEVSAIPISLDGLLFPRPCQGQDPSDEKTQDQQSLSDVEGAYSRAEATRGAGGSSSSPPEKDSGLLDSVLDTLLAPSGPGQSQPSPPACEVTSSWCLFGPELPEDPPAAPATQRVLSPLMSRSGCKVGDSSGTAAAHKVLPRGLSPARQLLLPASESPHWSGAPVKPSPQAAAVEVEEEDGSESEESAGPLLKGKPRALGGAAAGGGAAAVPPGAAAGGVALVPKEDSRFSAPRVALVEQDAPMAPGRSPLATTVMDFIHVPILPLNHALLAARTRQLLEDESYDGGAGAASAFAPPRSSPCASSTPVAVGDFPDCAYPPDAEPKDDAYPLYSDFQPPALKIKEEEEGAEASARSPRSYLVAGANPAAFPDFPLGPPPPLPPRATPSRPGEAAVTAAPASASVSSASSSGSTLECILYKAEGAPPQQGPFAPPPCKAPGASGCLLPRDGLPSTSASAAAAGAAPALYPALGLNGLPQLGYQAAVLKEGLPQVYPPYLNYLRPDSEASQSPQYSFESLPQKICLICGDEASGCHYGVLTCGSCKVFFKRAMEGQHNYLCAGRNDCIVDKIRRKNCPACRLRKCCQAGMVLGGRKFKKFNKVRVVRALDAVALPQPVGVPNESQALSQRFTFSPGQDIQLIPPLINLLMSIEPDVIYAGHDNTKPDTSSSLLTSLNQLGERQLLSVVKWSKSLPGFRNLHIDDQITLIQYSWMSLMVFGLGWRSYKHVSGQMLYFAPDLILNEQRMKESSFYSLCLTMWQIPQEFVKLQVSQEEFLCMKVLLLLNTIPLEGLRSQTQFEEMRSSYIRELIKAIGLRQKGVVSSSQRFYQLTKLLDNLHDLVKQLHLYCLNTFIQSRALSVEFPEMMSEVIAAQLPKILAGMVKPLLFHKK

By UniProt entry, the sequences of proteins in these tests, tags left out.
UniProt P03372, whole entry: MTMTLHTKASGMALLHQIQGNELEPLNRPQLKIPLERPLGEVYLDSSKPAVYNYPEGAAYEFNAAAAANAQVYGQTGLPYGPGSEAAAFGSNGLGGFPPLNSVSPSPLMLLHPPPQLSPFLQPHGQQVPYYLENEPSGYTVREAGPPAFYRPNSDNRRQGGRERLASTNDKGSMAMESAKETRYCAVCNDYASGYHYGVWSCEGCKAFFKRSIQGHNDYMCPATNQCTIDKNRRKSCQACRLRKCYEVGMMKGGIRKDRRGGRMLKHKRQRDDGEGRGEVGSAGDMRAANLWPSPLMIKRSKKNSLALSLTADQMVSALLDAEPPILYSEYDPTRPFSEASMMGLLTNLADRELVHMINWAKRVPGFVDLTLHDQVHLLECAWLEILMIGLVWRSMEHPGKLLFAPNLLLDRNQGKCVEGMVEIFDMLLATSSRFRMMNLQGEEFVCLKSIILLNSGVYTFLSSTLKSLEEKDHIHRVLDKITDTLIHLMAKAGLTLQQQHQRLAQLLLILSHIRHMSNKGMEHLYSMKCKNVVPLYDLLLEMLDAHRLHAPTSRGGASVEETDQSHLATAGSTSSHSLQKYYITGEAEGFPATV

| SMILES | binding times (relative ER residence time) (Estrogen Receptor (ER)) | effect on PR chromatin binding (change in fbound) [1] |
| --- | --- | --- |
| C[C@]12CC[C@@H]3c4ccc(O)cc4C[C@@H](CCCCCCCCC[S+]([O-])CCCC(F)(F)C(F)(F)F)[C@H]3[C@@H]1CC[C@@H]2O (some centres unmarked) | longer binding times compared with other ER modulators | – |
| CC#C[C@]1(O)CC[C@H]2[C@@H]3CCC4=CC(=O)CCC4=C3[C@@H](c3ccc(N(C)C)cc3)C[C@@]21C [mifepristone] | – | behaves similarly to ER antagonists |
